Laboratory results reported in patent US20220372111A1.

Experiments:
[1] = biological target: LDL receptor-related protein 1 (LRP1), purified from human placenta (human) (UniProt Q07954); assay: SPR equilibrium KD relative to LMWuPA:I91L PAI-1
[2] = biological target: LDL receptor-related protein 1 (LRP1), purified from human placenta (human) (UniProt Q07954); assay: SPR equilibrium analysis, LMWuPA complex over immobilised LRP1
[3] = biological target: LRP1 ligand binding cluster IV (UniProt Q07954); assay: SPR kinetics, cluster IV immobilised, Schemes I and II, kd1
[4] = biological target: LDL receptor-related protein 1 (LRP1), purified from human placenta (human) (UniProt Q07954); assay: SPR kinetics, LRP1 immobilised, Schemes I and II, ka1
[5] = biological target: LDL receptor-related protein 1 (LRP1), purified from human placenta (human) (UniProt Q07954); assay: SPR equilibrium (Req), LRP1 immobilised
[6] = biological target: LDL receptor-related protein 1 (LRP1), purified from human placenta (human) (UniProt Q07954); assay: SPR kinetics, LRP1 immobilised, second step
[7] = biological target: LRP1 ligand binding cluster IV (UniProt Q07954); assay: SPR kinetics, cluster IV immobilised, second step
[8] = biological target: LDL receptor-related protein 1 (LRP1), purified from human placenta (human) (UniProt Q07954); assay: SPR kinetics, LRP1 immobilised, Schemes I and II, kd1
[9] = biological target: LRP1 ligand binding cluster IV (UniProt Q07954); assay: SPR kinetics, cluster IV immobilised, Schemes I and II, ka1
[10] = biological target: LDL receptor-related protein 1 (LRP1), purified from human placenta (human) (UniProt Q07954); assay: SPR kinetics, Schemes I and II

Substance	Fold change [1] [fold]	Kd [2] [nM]	further results
LMWuPA complex with PAI-1 mutant K69A (from UniProt P00749 156-431)	2	1	–
LMWuPA complex with PAI-1 mutant K80/207/88A (from UniProt P00749 156-431)	244	122	–
LMWuPA complex with PAI-1 mutant K80/207/122A (from UniProt P00749 156-431)	50	25	–
LMWuPA complex with PAI-1 mutant K80/207/176A (from UniProt P00749 156-431)	14	7	–
LMWuPA complex with PAI-1 mutant K80/207/263A (from UniProt P00749 156-431)	32	16	–
LMWuPA complex with PAI-1 mutant K80/207A (from UniProt P00749 156-431)	26	13	–
LMWuPA complex with PAI-1 mutant K80A (from UniProt P00749 156-431)	5.8	2.9	–
LMWuPA complex with PAI-1 mutant K88A (from UniProt P00749 156-431)	1.4	0.7	–
LMWuPA complex with PAI-1 mutant K122A (from UniProt P00749 156-431)	2	1	–
LMWuPA complex with PAI-1 mutant K176A (from UniProt P00749 156-431)	1.4	0.7	–
LMWuPA complex with PAI-1 mutant K207A (from UniProt P00749 156-431)	1.6	0.8	–
LMWuPA complex with PAI-1 mutant K263A (from UniProt P00749 156-431)	1.4	0.7	–
LMWuPA:I91L PAI-1 complex (from UniProt P00749 156-431)	1	0.5	koff [3]: 0.046 s⁻¹; kon [4]: 910000 M⁻¹ s⁻¹; Kd [5]: 0.9 nM; ka2 [6]: 0.042 s⁻¹; kd2 [6]: 0.0018 s⁻¹; ka2 [7]: 0.14 s⁻¹; kd2 [7]: 0.01 s⁻¹; koff [8]: 0.018 s⁻¹; kon [9]: 1.3e+06 M⁻¹ s⁻¹; fold affinity against PAI-1 alone [10]: 100 fold
